The text below walks through data of publication PMC11109934 (RSC Medicinal Chemistry, 2024).

The test system of this assay is BxPC3 cells. Description: xCELLigence real time monitoring of cell proliferation, BxPC3. It counts as cell-based, human. The following applies: 16 μM.

For the compound `Oc1cccc2ccccc12` [1-naphthol, 1-Naphthol], the “activity in real-time xCELLigence experiments” value was “notable activity”.
